# Literature values as cited in US7875460B2, “Method for determining the effectiveness of stabilized chlorine dioxide in a mouth rinse” (priority 2007, dated 2011).
# Tested on: humans
# Details: 197 humans, three months, mean chlorite 10.3 mg/day, range 0-39.4 mg/day
substance,measurement,value
chlorite,adverse effects by hematologic serum chemistry measurements,failed to show any significant adverse effects
